The source of these data is BindingDB's records for doi:10.1021/jm8010993.

Sequences of proteins named here, by UniProt entry; tags and fusion partners are left off.
UniProt P23975, whole entry: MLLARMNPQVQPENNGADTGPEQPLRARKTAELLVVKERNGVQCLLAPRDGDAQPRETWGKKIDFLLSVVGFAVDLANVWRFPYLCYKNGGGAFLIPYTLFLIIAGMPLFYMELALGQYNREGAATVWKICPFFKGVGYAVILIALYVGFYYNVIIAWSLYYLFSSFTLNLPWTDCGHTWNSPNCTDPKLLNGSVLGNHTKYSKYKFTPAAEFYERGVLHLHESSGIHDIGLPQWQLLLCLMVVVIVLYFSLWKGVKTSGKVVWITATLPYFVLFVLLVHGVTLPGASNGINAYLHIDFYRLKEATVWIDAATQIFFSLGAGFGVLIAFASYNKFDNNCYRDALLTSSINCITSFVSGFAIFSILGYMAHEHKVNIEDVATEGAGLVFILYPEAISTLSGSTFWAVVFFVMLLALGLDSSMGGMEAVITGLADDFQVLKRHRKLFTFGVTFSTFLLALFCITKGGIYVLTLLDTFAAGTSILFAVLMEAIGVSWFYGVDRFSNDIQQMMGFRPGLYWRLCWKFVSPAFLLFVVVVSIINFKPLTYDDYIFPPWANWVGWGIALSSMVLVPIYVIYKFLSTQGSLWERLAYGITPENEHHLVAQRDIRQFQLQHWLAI

For the experiment, the target named is Sodium-dependent noradrenaline transporter (Homo sapiens, UniProt P23975). Nature of the experiment: PDE4 Enzyme Assay.

The term EC50 denotes the concentration that produces a half-maximal response.

`COc1ccc(F)cc1CCCC1CCC(CCN)O1` (stereo unspecified) yielded an EC50 of 1.93 µM.
